“Also recorded” adds a separate entry of the source.
System: CD4+ T-cells and dendritic cells
Experiment: I-MUNE assay: CD4+ T-cell proliferation to 15-mer peptide sets presented by dendritic cells
Assay type: cell-based, human
Design: Structure value: scale not given here
Conditions: for Response/Peptide: SI>2.95; for CD4+ T-cell epitopes identified: in words
Method: All peptides were obtained from a commercial source (Mimotopes, San Diego, C-A). For the I-MUNE® assay system described herein, 15-mer peptides offset by 3 amino acids that described the entire sequence of the proteins of interest were synthesized in a multipin format (See, Maeji et al., J. Immunol. Meth., 134:23-33 [1990]). Peptides were resuspended in DMSO at approximately 1 to 2 mg/ml, and stored at −70° C. prior to use. Each peptide was tested at least in duplicate, although for small peptide sets (e.g., Ber e 1), the peptides were routinely tested in triplicate. The results for each peptide were averaged and the stimulation index (SI) was calculated for each peptide.
Volunteer donor human blood buffy coat samples were obtained from two commercial sources (Stanford Blood Center, Palo Alto, Calif., and the Sacramento Medical Foundation, Sacramento, Calif.). Buffy coat samples were further purified by density separation. Each sample was HLA typed for HLA-DR and HLA-DQ using a commercial PCR-based kit (Bio-Synthesis). […] However, the donor pool did show evidence of slight enrichments for ethnicities common to the San Francisco Bay Area.
Monocytes were purified by adherence to plastic in AIM V medium (Gibco/Life Technologies). Adherent cells were cultured in AIM V media containing 500 units/ml of recombinant human IL-4 (Endogen) and 800 units/ml recombinant human GM-CSF (Endogen) for 5 days. On day 5, recombinant human IL-1α (Endogen) and recombinant human TNF-α (Endogen) were added to 50 units/ml and 0.2 units/ml, respectively. On day 7, the fully matured dendritic cells were treated with 50 μg/ml mitomycin C (Sigma) for 1 hour at 37° C. Treated dendritic cells were dislodged with 50 mM EDTA in PBS, washed in AIM V medium, counted, and resuspended in AIM V media at 2×10^5 cells/ml.
CD4^+ T-cells were purified by negative selection from frozen aliquots of human peripheral blood mononuclear cells (PBMC) using Cellect CD4 columns (Cedarlane). CD4^+ T-cell populations were routinely >80% pure and >95% viable as judged by trypan blue (Sigma) exclusion. CD4^+ T-cells were resuspended in AIM V media at 2×10^6 cells per ml.
CD4^+ T-cells and dendritic cells were plated in round-bottomed 96 well format plates at 100 μl of each cell mix per well. Peptide was added to a final concentration of approximately 5 ug/ml in 0.25-0.5% DMSO. Control wells contained 0.5% DMSO without added peptide. Each peptide was tested in duplicate. Cultures were incubated at 37° C., in 5% CO2 for 5 days. On day 5, 0.5 uCi of tritiated thymidine (NEN DuPont) was added to each well. On day 6, the cultures were harvested onto glass fiber mats using a TomTec manual harvester (TomTec), then processed for scintillation counting. Proliferation was assessed by determining the average counts per minute (CPM) value for each set of duplicate wells (TriLux Beta). This method is also described in U.S. Pat. No. 6,218,165 and Stickler et al., J. Immunother. 23: 654-660 (2000), both of which are herein incorporated by reference.
For each individual buffy coat sample, the average CPM values obtained in the I-MUNE® assay for all of the peptides were analyzed. The average CPM values for each peptide were divided by the average CPM value for the control (DMSO only) wells to determine the “stimulation index” (SI). Donors were tested with each peptide set until an average of at least two responses per peptide were compiled. The data for each protein was graphed showing the percent responders to each peptide within the set. A positive response was collated if the SI value was equal to or greater than 2.95. This value was chosen as it approximates a difference of three standard deviations in a normal population distribution. For each protein assessed, positive responses to individual peptides by individual donors were compiled. To determine the background response for a given protein, the percent responders for each peptide in the set were averaged and a standard deviation was calculated. […]

[1] = Table 3, Stanford and Sacramento donors

Substance | structure value, in words | Average Background (Table 2) | Number of epitope regions (Table 2) | Response per peptide (Table 2) | Structure value (Table 2) | Background % (Table 3) [%] | Response/Peptide (Table 3) | Structure value [1] | background response (average percent responders per peptide, +/− sd where given) | CD4+ T-cell epitopes identified (listed as human β2-microglobulin) | CD4+ T-cell epitopes identified (listed as human β-2 microglobulin) | CD4+ T-cell epitopes identified (listed as β-2 microglobulin) | Background +/− sd (Table 5, background response value) | Responses/peptide found (Table 5, determined experimentally) | Average percent response to epitope peptide (Table 6, repeat tests of the epitope peptide on discrete donor groups) [%]
B2-microglobulin: human β2-microglobulin, negative control [reference compound] | low | 3.9 | 0 | 3.39 | 0.39 | 3.9 | 3.38 | 0.39 | 3.90+/−1.82% | None of the peptide responses were significant; also recorded: did not identify any epitopes | no epitopes were found | no prominent epitope responses were found | – | – | –
hIFN-B: human interferon-beta | comparatively high | 3.17 | 1 | 2.79 | 0.75 | 3.17 | 2.79 | 0.75 | – | – | – | – | 3.17 +/− 3.28 | 2.79 | 16.41

From patent publication US20080220450A1, “Population Based Prediction Methods for Immune Response Determinations and Methods for Verifying Immunological Response Data” (Danisco US, Inc., Genencor Division, priority 2004, published 2008)
